Drawing on patent publication US20050038070A1, “Asthma and allergic inflammation modulators” (AMGEN INC., priority 2003, published 2005), this text covers IC50 for three compounds.

The chains behind the UniProt entries cited, without tags or fusion partners.
UniProt Q9Y5Y4, whole entry: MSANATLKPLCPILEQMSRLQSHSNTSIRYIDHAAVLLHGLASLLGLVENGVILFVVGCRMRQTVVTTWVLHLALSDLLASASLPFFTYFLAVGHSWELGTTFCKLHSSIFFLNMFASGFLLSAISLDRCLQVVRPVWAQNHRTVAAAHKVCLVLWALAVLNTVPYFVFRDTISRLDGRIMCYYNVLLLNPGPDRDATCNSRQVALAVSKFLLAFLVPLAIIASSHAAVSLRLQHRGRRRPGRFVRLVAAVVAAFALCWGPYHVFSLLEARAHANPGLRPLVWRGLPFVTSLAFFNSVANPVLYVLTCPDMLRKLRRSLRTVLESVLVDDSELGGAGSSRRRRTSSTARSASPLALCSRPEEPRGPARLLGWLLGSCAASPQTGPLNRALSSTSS

SMILES strings stand for the structures.

For the assay, the target named is human CRTH2 (Homo sapiens, UniProt Q9Y5Y4). Kind of assay: Human CRTH2 binding assay (3H-PGD2 binding, 293(124) cells). The following applies: 3H-PGD2 binding to 293(124) cells stably expressing human CRTH2.

Regarding `CC(=O)N(c1ccccc1)C1CC(C)N(C(=O)c2ccc([N+](=O)[O-])cc2)c2ccccc21` (stereo not drawn), the IC50 is more than 40 nM.

With `CC1CC(N(C(=O)CCCC(=O)O)c2ccccc2)c2ccccc2N1C(=O)c1ccccc1` (stereo not drawn), the IC50 is less than 40 nM.

`CCN(CC)c1ccc(C(=O)N2c3ccccc3C(N(C(C)=O)c3ccccc3)CC2C)cc1` (stereo not drawn) had an IC50 of less than 40 nM.
